This note sets out measurements from patent US20020170078A1, “Calcineurin-related transgenic mammals, compositions and methods” (priority 2001, published 2002).

The assay concerns Schaffer collateral pathway to area CA1 of hippocampal slices. Put plainly: 1-train (100 Hz) LTP, field potential recordings in hippocampal slices. The format is cell-based, mouse. The following applies: mutant slices (expressing calcineurin inhibitor); with KT5720 (1 uM); versus 168±17.

In the case of KT5720, the “1-train LTP, % baseline 30 min after tetanus” value is 126±7 % baseline.
